# Data published in PubChem BioAssay AID1259400 (National Center for Advancing Translational Sciences (NCATS), 2018).
# Protein sequences, listed by entry. Tags and fused reporters are not part of them.
# UniProt Q9HBX9, whole entry: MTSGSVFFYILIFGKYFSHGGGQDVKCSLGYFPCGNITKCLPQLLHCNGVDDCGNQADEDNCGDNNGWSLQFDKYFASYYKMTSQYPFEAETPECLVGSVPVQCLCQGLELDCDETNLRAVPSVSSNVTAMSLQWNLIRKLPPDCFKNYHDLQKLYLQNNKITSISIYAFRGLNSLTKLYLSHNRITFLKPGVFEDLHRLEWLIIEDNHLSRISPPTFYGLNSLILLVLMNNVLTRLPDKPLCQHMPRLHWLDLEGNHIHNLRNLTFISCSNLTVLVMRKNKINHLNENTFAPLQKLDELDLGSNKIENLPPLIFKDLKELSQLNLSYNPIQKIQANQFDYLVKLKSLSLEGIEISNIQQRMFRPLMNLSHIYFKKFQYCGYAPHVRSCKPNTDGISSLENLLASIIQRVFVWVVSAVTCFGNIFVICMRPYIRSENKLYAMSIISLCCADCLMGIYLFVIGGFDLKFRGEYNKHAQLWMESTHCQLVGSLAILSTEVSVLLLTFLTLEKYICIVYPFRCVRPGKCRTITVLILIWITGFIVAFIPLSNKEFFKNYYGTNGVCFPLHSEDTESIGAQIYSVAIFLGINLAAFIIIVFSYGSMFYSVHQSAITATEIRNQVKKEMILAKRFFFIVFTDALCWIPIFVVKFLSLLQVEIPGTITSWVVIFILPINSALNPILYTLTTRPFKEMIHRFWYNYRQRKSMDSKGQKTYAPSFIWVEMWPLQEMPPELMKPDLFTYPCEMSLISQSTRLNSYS
# Only a part is listed here, and it is no random draw. Activity calls are given as the source filed them.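 Rule for the calls: active = activity change of -60% or lower, but not beyond a set lower limit; inconclusive = change between -60% and -40%, or beyond the set limit; inactive = change above -40%.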
# Biological target: Relaxin receptor 1 (Homo sapiens) (UniProt Q9HBX9)
# Experiment: qHTS Assay for Antagonists of the Relaxin Receptor RXFP1
# Details: HEK293-RXFP1, relaxin-stimulated cAMP HTRF, 30 min; at 57.5 µM; active compounds read low
# Source text: The relaxin hormone is involved in the variety of biological functions in normal tissues and diseases. The role of relaxin is well-established in female reproduction and parturition, mammary gland and endometrial development, maintenance of myometrial quiescence during pregnancy. Relaxin signaling through its G protein-coupled receptor (GPCR) RXFP1 results in ECM remodeling through regulation of collagen deposition, cell invasiveness, proliferation and overall tissue homeostasis. […] Recombinant human relaxin (rhRlx) is currently being tested in clinical trials as a protective agent in congestive heart failure, in treating severe preeclampsia, and as an anti-fibrotic agent in various organs. […] Upon relaxin binding RXFP1 activation leads to the activation of adenylate cyclase (AC) via G?s. cAMP will activate PKA, which phosphorylates many signaling proteins. Thus, detection of cAMP increase is an easy and reliable indication of relaxin receptor activation. To screen for antagonists of the relaxin receptor, a HEK293T cell line stably transfected with RXFP1 was used. RXFP1 activation by relaxin in presence of various concentrations of tested compounds was assayed by changes in cAMP levels as detected with a time-resolved fluorescence energy transfer (TR-FRET) cAMP detection kit.
# For the primary screening, we used HTRF(R) (Homogenous Time-Resolved Fluorescence) cAMP HiRange assay (Cisbio Bioassays, 62AM6PEJ). Presence of cAMP in the cell lysate disrupts binding between the Cryptate-labeled anti-cAMP and d2-labeled cAMP pair, leading to a decrease in TR-FRET signal. […] The EC50 values were determined from concentration-response data modeled with the standard Hill equation. […] The plates were incubated at ambient temperature for 30 minutes and, then, FRET signal was read on Envision plate reader (PerkinElmer, Waltham, MA), at wavelengths 340nm (excitation), 615nm & 665nm (emission of donor and acceptor channels respectively).
# % is set by controls: 0 for no effect and ±100 for the full control effect.
row,SMILES,"activity change, negative = inhibition"
1,CCC(=O)N(c1ccccc1)C1(COC)CCN(CCn2nnn(CC)c2=O)CC1,inactive: 9.81%
2,CCC(=O)N(c1ccccc1)C1(COC)CCN(CCc2cccs2)CC1,inactive: -21.6%
3,CN(CCCl)CCCl,inactive: 24.3%
